US9284362B2, “α/β-peptide mimics of Z-domain peptides” (Wisconsin Alumni Research Foundation, priority 2014, dated 2016)
Read-outs that look alike come from different tables or passages of the source.

Protein sequences, listed by entry. Tags and fused reporters are not part of them. Residues count along the entry.
UniProt P01375, 77-233 limits assumed: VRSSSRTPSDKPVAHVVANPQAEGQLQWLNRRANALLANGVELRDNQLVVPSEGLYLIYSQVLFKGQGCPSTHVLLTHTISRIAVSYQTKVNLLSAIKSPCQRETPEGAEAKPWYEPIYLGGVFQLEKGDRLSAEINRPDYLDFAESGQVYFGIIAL
UniProt P15692, 27-191 isoform P15692-4: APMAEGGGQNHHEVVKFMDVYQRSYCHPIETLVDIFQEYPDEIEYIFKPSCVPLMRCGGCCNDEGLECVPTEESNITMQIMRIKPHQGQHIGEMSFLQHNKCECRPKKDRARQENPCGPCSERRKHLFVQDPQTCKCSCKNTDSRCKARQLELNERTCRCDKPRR

Columns and labels:
[1] = target: T1, TNFα (binding to immobilized TNFR1) (Homo sapiens, UniProt P01375); assay: TNFα/TNFR competition ELISA; settings: read-out: TNFa-TNFR ELISA IC50; Table 14
T1 construct: purchased R&D Systems 210-TA-020 (TNFα); 636-R1-025 (sTNF RI)

[2] = target: T2, VEGF (Homo sapiens, UniProt P15692); type: binding; settings: FP tracer
T2 construct: made in house

[3] = target: T2, VEGF; assay: VEGF competition fluorescence polarization (FP) assay; type: binding

| Substance | IC50 [1] [µM] | Ki ([3]; Table 12, optimized designs) [µM] | other results |
| --- | --- | --- | --- |
| WRIGEAGTDPNLNHQQFRAKILZIWXDP-NH2 [α/β-TNFα-12] | > 10 | – | – |
| (BODIPY^TMR)-X-CDIHV(Nle)WEWECFERL-NH2 [BODIPY-v114*ΔNT] | – | – | Kd [2]: 0.021 µM |
| VDNKFNKEXCNZRAIEAALDPNLNDAQFHAKIWZIIXDC [S28] | – | 0.34 | – |
| XWRIGEAGTDPNLNHQQFRAKILZIWX-NH2 [α/β-TNFα-15] | > 10 | – | – |
| VDNKFNKEXHNZRAIEAALDPNLNDQQFHAKIWZIIXD [α/β-VEGF-1-linear] | – | > 50 | Ki ([3]; VEGF binding, competition FP assay (Table 1)): > 50 µM; Ki ([3]; read-out: Ki for VEGF, competition FP assay): > 50 µM |
